Experiment [1] addresses T1, Estrogen receptor (Homo sapiens) (UniProt Q92731+P03372). The experiment in a line: Binding affinity for estrogen receptor in MCF-7 cell lysate relative to estradiol. It is filed as cell-based.
The target of experiment [2] is T1, Estrogen receptor (Homo sapiens). The experiment in a line: Binding affinity for estrogen receptor in MCF-7 cell lysate relative to coumestrol. It is filed as cell-based.

Sequences of proteins named here, by UniProt entry; tags and fusion partners are left off.
UniProt Q92731, whole entry, looked up: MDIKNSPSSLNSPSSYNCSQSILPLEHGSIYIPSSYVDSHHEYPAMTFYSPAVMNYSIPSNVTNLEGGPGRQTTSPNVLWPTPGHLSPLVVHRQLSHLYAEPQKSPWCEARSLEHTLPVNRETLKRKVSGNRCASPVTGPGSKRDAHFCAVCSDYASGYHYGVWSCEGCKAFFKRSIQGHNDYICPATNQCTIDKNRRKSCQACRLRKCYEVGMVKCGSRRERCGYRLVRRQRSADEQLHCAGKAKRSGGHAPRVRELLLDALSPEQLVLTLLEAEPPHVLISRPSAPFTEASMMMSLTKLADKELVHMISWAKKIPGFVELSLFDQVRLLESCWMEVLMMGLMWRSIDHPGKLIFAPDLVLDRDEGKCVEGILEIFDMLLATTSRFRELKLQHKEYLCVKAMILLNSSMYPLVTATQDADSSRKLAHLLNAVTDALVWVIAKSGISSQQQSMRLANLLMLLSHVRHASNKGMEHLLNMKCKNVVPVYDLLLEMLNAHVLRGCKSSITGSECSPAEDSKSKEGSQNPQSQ
UniProt P03372, whole entry, looked up: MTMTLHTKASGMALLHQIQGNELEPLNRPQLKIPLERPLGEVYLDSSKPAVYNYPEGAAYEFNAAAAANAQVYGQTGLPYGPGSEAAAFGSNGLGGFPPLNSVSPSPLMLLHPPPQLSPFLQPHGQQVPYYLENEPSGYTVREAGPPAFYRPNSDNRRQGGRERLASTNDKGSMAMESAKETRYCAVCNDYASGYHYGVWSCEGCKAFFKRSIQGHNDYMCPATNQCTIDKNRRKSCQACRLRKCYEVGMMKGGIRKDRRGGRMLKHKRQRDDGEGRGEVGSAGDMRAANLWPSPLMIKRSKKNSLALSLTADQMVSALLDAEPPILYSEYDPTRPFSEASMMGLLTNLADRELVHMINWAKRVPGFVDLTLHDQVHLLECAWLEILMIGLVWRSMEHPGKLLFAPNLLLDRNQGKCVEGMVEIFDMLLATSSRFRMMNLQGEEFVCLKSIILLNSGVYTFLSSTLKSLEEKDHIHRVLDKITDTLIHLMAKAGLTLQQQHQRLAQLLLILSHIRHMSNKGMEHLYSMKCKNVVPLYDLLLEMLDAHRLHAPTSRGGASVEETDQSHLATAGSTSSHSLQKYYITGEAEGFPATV

This passage reports RBA results from ChEMBL document CHEMBL1153689, “Conversion of the phytoestrogen coumestrol into a selective estrogen receptor modulator (SERM) by attachment of an amine-containing sidechain” (Bioorg Med Chem Lett, 1996).

In the case of `Oc1ccc2c(c1)OC(c1ccc(OCCN3CCCCC3)cc1)c1c-2oc2cc(O)ccc12` (configuration not stated), the RBA worked out at 7.2% in experiment [1] and 13.2% in experiment [2].
